{"sequences": {"note": "Sequences of proteins named here, by UniProt entry; tags and fusion partners are left off.", "UniProt P34972, whole entry": "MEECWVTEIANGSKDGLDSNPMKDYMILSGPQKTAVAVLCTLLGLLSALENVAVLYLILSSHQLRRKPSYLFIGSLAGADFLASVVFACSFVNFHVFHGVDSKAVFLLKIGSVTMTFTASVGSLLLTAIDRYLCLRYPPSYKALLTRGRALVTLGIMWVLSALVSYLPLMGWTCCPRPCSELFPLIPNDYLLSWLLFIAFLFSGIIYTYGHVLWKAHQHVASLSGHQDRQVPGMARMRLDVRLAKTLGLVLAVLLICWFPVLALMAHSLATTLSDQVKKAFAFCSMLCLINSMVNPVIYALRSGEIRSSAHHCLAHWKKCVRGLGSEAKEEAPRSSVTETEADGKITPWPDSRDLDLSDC"}, "source": "patent US20120172339A1", "about": "“ANGIOGENIC RESORCINOL DERIVATIVES” (Northeastern University, priority 2009, published 2012)", "target": "CB2 cannabinoid receptor (Homo sapiens, UniProt P34972)", "assay": "CB2 receptor binding affinity", "experimental": "Some disclosed compounds were tested for CB1 and CB2 receptors binding affinity (Table 5). As used herein “binding affinity” is represented by the Ki value. The Ki value is the affinity constant and describes the affinity of the compound for the receptor. The lower the Ki value, the higher the affinity of the compound for the receptor. A detailed description of the methods used to test “binding affinity” of compounds is given in Makriyannis, et al., US 2007, 0135388 and in Papahatjis, et al. J. Med. Chem. (2007) 4048, the content of each of which is hereby incorporated by reference.", "data": [{"smiles": "C=C(C)[C@@H]1CCC(C)=C[C@H]1c1c(O)cc(CCCCC)cc1O", "note": "(relative stereo) [Compound 3.2, (−)-2-[3-3,4-trans-p-Menthadien-(1,8)-yl]-5-pentylresorcinol, reference compound]", "values": [{"measurement": "Ki", "value": 286, "unit": "nM"}]}]}
